Reference: patent US10961289B2, “Small molecules blocking histone reader domains” (The University of Copenhagen, priority 2015, dated 2021)

Biological target: T1, TONSL ARD (Homo sapiens, UniProt Q96HA7)
T1 construct: GST (N); made in house; host or cells: E. coli BL21(DE3)-RIL
T1 sequence (Q96HA7 512-692): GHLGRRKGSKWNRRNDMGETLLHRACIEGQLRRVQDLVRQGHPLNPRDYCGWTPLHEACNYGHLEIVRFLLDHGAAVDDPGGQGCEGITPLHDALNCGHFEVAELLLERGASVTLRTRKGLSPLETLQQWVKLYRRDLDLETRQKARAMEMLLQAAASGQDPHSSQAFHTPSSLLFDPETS
Assay: ITC of TONSL ARD binding to histone peptides
Conditions: ITC (FIG. 13); for H4K20me1/2 also peptide pull-downs
Method: All the ITC titrations were performed on a Microcal ITC 200 calorimeter at 25° C. The peptides of histone H4 (residues 9-25) and its modified peptides K16ac (with acetylation on Lys16), H18W (with His18 mutated to Trp18), H4K20me1 (mono-methylation on Lys20) and H4K20me2 (di-methylation on Lys20), and peptide of histone H3(1-19)K9me1 (mono-methylation on Lys9) were all synthesized at Tufts University Core Facility. The exothermic heat of the reaction was measured by 17 sequential 2.2 μl injections of the peptides (1.41 mM in buffer 20 mM Tris pH 7.5 and 0.5 M NaCl) into 200 μl of the TONSL ARD solution (145 μM in the same buffer), spaced at intervals of 150 s. The data were processed with Microcal Origin software and the curves were fit to a single […] binding model.

- binding to TONSL ARD: no binding
Substance: H3K9me1: peptide of histone H3(1-19)K9me1 (mono-methylation on Lys9) [Example H3K9me1]
